# Measurements taken from patent US7977370B2, “(Hetero)aryl cyclohexane derivatives” (dated 2011).
# By UniProt entry, the sequences of proteins in these tests, tags left out.
# UniProt P41145, whole entry: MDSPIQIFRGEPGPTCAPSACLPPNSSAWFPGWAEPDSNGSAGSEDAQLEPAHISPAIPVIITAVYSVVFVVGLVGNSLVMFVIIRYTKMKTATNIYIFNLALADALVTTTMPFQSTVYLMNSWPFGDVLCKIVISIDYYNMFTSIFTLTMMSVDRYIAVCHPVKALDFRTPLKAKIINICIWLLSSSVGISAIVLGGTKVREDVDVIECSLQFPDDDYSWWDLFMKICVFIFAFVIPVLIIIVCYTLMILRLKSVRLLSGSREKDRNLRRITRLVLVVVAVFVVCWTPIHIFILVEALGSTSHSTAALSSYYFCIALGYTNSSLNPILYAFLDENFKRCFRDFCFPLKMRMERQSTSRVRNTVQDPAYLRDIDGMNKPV
# UniProt P35372, whole entry: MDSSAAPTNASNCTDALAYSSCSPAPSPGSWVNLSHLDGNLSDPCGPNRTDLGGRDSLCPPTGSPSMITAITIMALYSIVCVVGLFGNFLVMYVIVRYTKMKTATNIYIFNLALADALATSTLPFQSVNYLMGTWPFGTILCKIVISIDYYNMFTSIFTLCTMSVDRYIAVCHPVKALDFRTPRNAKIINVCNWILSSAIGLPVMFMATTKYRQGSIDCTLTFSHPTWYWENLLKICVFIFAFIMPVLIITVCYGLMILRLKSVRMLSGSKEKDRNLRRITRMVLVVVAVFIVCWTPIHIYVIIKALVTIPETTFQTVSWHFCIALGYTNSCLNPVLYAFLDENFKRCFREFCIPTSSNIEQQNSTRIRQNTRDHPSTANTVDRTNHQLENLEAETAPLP
# UniProt P41146, whole entry: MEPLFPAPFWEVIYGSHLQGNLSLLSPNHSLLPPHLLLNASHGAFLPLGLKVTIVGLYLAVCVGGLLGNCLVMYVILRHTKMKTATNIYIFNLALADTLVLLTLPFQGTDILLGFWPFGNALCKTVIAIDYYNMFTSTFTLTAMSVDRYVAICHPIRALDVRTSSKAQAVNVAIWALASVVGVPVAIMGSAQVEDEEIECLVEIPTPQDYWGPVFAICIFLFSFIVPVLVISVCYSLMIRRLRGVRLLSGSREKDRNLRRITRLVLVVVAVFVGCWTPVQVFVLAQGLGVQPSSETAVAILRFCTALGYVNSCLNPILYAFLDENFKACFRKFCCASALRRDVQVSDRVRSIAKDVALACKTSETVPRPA
# Assays:
# [1] = molecular target: kappa-opioid receptor (Homo sapiens, UniProt P41145); settings: for Ki: read-out: Ki (kappa) Mean, comparison table
# [2] = molecular target: human μ-opiate receptor (Homo sapiens, UniProt P35372); settings: for Ki: read-out: Ki (μ) Mean, comparison table; for Ki (μ)/Ki (ORL1): ratio, comparison table Q=(hetero)aryl vs Q=H
# [3] = molecular target: ORL 1-receptor (Homo sapiens, UniProt P41146); assay: ORL 1 receptor binding assay with 3H-nociceptin/orphanin FQ, membranes of recombinant CHO-ORL 1 cells; settings: read-out: Ki (ORL1) Mean; comparison table
Compound,Ki [1],Ki [2],Ki [3],"Ki (kappa)/Ki (ORL1) ([1]; ratio, comparison table Q=(hetero)aryl vs Q=H)",Ki (μ)/Ki (ORL1) [2],"Inhibition (kappa) at [1 μM] ([1]; test concentration 1 μM, printed in Ki (kappa) column)"
"Cc1c(C2CCC(c3ccccc3)(N(C)C)CC2)[nH]c2ccccc12 (single isomer, unassigned) [Comparison 2]",0.0012 µM,0.0004 µM,0.0009 µM,,,
"Cc1c(C2CCC(c3ccccc3)(N(C)C)CC2)[nH]c2ccccc12 (single isomer, unassigned) [Comparison 3]",,0.013 µM,0.014 µM,,,
CN(C)C1(c2cccs2)CCC(c2[nH]c3ccccc3c2CCc2ccncc2)CC1 (centres unmarked),0.153 µM,0.197 µM,0.153 µM,1.0,1.2,
Cc1c(C2CCC(c3ccccc3)(N(C)C)CC2)oc2ccccc12 (centres unmarked),,0.005 µM,0.039 µM,,0.1,31%
